Test system: human sebocytes
Assay: Sebaceous lipid synthesis by sebaceous cells (14C acetate, HPTLC)
Type: cell-based
Settings: Cholera toxin & Bovine pituitary extract

COc1ccccc1-c1nc(Nc2ccccc2)s[n+]1-c1ccccc1OC.[Br-] [Compound 74, 2-(2-methoxyphenyl)-3-(2-methoxyphenyl)-5-phenylamino-[1,2,4]-thiadiazol-2-ium]
% Inh @ 0.4 μM Triglyceride (cell sex F/M, 0.4 μM): 0% | % Inh @ 0.6 μM Triglyceride (cell sex F/M, 0.6 μM): 0% | % Inh @ 0.4 μM Cholesterol ester (cell sex F, 0.4 μM): 85% | % Inh @ 0.4 μM Wax ester (cell sex F, 0.4 μM): 70% | % Inh @ 0.6 μM Cholesterol ester (cell sex F, 0.6 μM): 88% | % Inh @ 0.6 μM Unknown lipid (cell sex F, 0.6 μM): 85/80% | % Inh @ 0.6 μM Wax ester (cell sex F, 0.6 μM): 67% | % Inh @ 0.4 μM Cholesterol ester (cell sex M, 0.4 μM): 64% | % Inh @ 0.4 μM Wax ester (cell sex M, 0.4 μM): 50% | % Inh @ 0.6 μM Cholesterol ester (cell sex M, 0.6 μM): 76% | % Inh @ 0.6 μM Wax ester (cell sex M, 0.6 μM): 42%

Reference: US8501791B2, “1,2,4-thiadiazolium derivatives as melanocortin receptor modulators” (Ortho-McNeil Pharamaceutical, Inc., priority 2001, dated 2013)
